Values quoted from earlier work as cited in patent US5441941A, “1,2-dihydroellipticines with activity against CNS specific cancer” (The United States of America as represented by the …, priority 1993, dated 1995).

What was measured:
[1] = test system: Sarcoma 180 (solid); settings: in vivo; cited from earlier work
[2] = test system: mouse lymphoid leukemia L-1210; settings: in vivo; cited from earlier work

In the case of `COc1ccc2[nH]c3c(C)c4ccncc4c(C)c3c2c1` [9-methoxyellipticine], the “effect against tumor of animals” value [1] is listed as “effective against the tumor of animals” and the antitumor activity [2] is listed as “effective against the tumor of animals”.
